The assay deals with extracellular soluble domain of the human EGFR (sEGFR) (human) (UniProt P00533). As to the kind of experiment: SPR (Biacore 3000), 425 immobilised on CM5 chip (about 200 RU), sEGFR injected, 1:1 model with mass transport. A general note: In SPR one partner is held on a chip, and binding of the other changes the refractive index at the surface.

Experimental findings from patent publication US20130060010A1 are described below.

Broadly, the Kd is the constant that tells how readily two partners part at equilibrium. A high value points to weaker binding.

“mAb 425 (murine monoclonal antibody, EMD55900)” showed a Kd of 32.3 nM.
